Experimental data as given in patent US20260384401A1, “NOVEL BICYCLIC HETEROCYCLYL COMPOUNDS AND USE THEREOF” (published 2026).

Amino acid sequences for entries named in this document (tags omitted). A change or cut given only in a name is not applied to a line headed by its entry.
UniProt Q07889, whole entry, stated change not applied: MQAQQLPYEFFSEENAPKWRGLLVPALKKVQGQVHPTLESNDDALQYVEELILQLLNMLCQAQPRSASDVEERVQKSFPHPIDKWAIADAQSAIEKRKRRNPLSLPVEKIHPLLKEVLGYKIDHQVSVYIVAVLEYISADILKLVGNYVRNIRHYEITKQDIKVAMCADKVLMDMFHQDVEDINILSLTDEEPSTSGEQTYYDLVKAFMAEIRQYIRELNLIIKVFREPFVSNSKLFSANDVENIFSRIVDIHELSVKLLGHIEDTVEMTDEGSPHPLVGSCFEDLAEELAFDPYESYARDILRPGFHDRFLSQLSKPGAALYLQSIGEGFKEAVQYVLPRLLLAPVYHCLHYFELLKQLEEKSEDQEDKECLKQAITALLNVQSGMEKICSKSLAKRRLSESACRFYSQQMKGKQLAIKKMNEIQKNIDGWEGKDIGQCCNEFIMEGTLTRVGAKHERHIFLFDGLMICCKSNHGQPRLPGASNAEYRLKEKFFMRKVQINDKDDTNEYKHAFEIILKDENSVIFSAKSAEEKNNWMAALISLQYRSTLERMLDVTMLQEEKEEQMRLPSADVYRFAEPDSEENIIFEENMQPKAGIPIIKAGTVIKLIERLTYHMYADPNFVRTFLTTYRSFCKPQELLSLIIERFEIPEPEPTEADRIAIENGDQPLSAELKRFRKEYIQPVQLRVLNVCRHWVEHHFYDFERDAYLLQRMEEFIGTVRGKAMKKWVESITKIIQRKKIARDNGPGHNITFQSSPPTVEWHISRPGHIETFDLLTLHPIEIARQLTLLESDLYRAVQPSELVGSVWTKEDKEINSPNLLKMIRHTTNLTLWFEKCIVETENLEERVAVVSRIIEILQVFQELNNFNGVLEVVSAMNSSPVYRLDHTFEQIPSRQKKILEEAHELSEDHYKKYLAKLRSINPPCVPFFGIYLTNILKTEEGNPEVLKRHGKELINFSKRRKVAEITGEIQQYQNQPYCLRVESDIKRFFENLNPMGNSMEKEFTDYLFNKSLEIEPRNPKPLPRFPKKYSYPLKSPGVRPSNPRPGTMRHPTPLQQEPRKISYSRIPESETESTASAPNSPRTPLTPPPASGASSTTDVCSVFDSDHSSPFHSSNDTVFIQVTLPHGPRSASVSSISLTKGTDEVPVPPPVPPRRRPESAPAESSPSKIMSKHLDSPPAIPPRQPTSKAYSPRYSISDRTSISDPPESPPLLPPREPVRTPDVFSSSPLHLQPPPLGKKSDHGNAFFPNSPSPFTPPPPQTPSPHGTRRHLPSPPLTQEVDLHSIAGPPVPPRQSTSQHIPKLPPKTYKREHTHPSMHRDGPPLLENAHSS

Molecular target: KRAS G12C/SOS1 (Homo sapiens, UniProt Q07889)
Assay: KRAS::SOS1 HTRF Binding Analysis (inhibition of protein-protein interaction between SOS1 and KRAS G12C)
Details: 0.1 uM compound, GTP, room temperature, one hour and 40 minutes
Protocol: An SOS1 inhibitory ability of the example compounds of the present invention was confirmed by identifying the effect of inhibiting a protein-protein interaction between SOS1 and KRAS G12C of the compounds according to examples of the present invention.
Specifically, a KRAS G12C/SOS1 binding kit (64KRASG12PEG, Cisbio, France) was text use purchased and used. 2 ? of Tagl-KRAS G12C and 2 ? of GTP were premixed and dispensed 4 μl each into a 384 well plate (6007290, PerkinElmer, USA). 2 ? of the compound and 4 ? of Tag2-SOS1 were placed and then 10 ? of premixed Anti-Tag1 XL665 antibody and Anti-Tag2 Tb cryptate antibody was dispensed to each well. The plates were sealed and allowed to react at room temperature for one hour and 40 minutes, and then 665 nm wavelength and 620 nm wavelength were measured using a HTRF® compatible reader (Synergy H4, BioTeK, USA), and the ratio of receptor and donor emission signals for each well was calculated as 665 nm/620 nm×10^4.
(+++: more than 70 to 100% inhibition, ++: more than 40 to 70% inhibition, +: 0 to 40% inhibition)

Cc1c([C@@H](C)Nc2cnnc3ccc(N4CC5(CN(C)C5)C4)cc23)cccc1C(F)(F)F
% inhibition at 0.1 uM: + (0 to 40% inhibition)

C[C@@H](Nc1cnnc2ccc(C3=CCN(C(=O)C4COC4)CC3)cc12)c1cccc(C(F)F)c1F
% inhibition at 0.1 uM: +++ (more than 70 to 100% inhibition)

C[C@@H](Nc1cnnc2ccc(N3CC[C@H](F)C3)cc12)c1cccc(C(F)F)c1F
% inhibition at 0.1 uM: + (0 to 40% inhibition)

C[C@H]1CN(c2ccc3nncc(N[C@H](C)c4cccc(C(F)F)c4F)c3c2)CCO1
% inhibition at 0.1 uM: + (0 to 40% inhibition)

C[C@@H](Nc1cnnc2ccc(N[C@@H]3CCOC3)cc12)c1cccc(C(F)F)c1F
% inhibition at 0.1 uM: + (0 to 40% inhibition)

Cc1c([C@@H](C)Nc2cnnc3ccc(N4CC5CC(C4)O5)cc23)cccc1C(F)(F)F
% inhibition at 0.1 uM: + (0 to 40% inhibition)

C[C@@H](Nc1cnnc2ccc(N3CCC[C@@H](O)C3)cc12)c1cccc(C(F)F)c1F
% inhibition at 0.1 uM: + (0 to 40% inhibition)

C[C@@H](Nc1cnnc2ccc(N3CC4(COC4)C3)cc12)c1cccc(C(F)F)c1F
% inhibition at 0.1 uM: + (0 to 40% inhibition)

C[C@@H](Nc1cnnc2ccc(N3CC(O)C3)cc12)c1cccc(C(F)F)c1F
% inhibition at 0.1 uM: + (0 to 40% inhibition)

C[C@@H](Nc1cnnc2ccc(C3=CCN(C)CC3)cc12)c1cccc(C#N)c1
% inhibition at 0.1 uM: + (0 to 40% inhibition)

C[C@@H](Nc1cnnc2ccc(N3C4CCC3COC4)cc12)c1cccc(C(F)F)c1F
% inhibition at 0.1 uM: + (0 to 40% inhibition)

C[C@@H](Nc1cnnc2ccc(C3=CCOCC3)cc12)c1cccc(C(F)F)c1F
% inhibition at 0.1 uM: + (0 to 40% inhibition)

C[C@@H](Nc1cnnc2ccc(N3CCN(C(=O)[C@@H]4CCOC4)CC3)cc12)c1cccc(C(F)F)c1F
% inhibition at 0.1 uM: +++ (more than 70 to 100% inhibition)

C[C@@H](Nc1cnnc2ccc(N3CCN(C4COC4)CC3)cc12)c1cccc(C(F)F)c1F
% inhibition at 0.1 uM: + (0 to 40% inhibition)

C[C@@H](Nc1cnnc2ccc(N3CC[C@H](O)C3)cc12)c1cccc(C(F)F)c1F
% inhibition at 0.1 uM: + (0 to 40% inhibition)

C[C@@H](Nc1cnnc2ccc(N3CC[C@@H](F)C3)cc12)c1cccc(C(F)F)c1F
% inhibition at 0.1 uM: + (0 to 40% inhibition)

C[C@@H](Nc1cnnc2ccc(N3C[C@H]4COC[C@H]4C3)cc12)c1cccc(C(F)F)c1F
% inhibition at 0.1 uM: ++ (more than 40 to 70% inhibition)

C[C@@H](Nc1cnnc2ccc(N3CCC(C)(O)CC3)cc12)c1cccc(C(F)F)c1F
% inhibition at 0.1 uM: ++ (more than 40 to 70% inhibition)

CC(=O)N1CC=C(c2ccc3nncc(N[C@H](C)c4cccc(C(F)F)c4F)c3c2)CC1
% inhibition at 0.1 uM: + (0 to 40% inhibition)

C[C@@H](Nc1cnnc2ccc(N[C@H]3CCOC3)cc12)c1cccc(C(F)F)c1F
% inhibition at 0.1 uM: + (0 to 40% inhibition)

C[C@@H](Nc1cnnc2ccc(N3CCN(C(=O)C4CC4)CC3)cc12)c1cccc(C(F)F)c1F
% inhibition at 0.1 uM: ++ (more than 40 to 70% inhibition)

Cc1c(C#N)cccc1[C@@H](C)Nc1cnnc2ccc(N3CC4CC(C3)O4)cc12
% inhibition at 0.1 uM: + (0 to 40% inhibition)

C[C@@H](Nc1cnnc2ccc(N3C[C@@H]4C[C@H]3CO4)cc12)c1cccc(C(F)F)c1F
% inhibition at 0.1 uM: + (0 to 40% inhibition)

CO[C@H]1CCCN(c2ccc3nncc(N[C@H](C)c4cccc(C(F)F)c4F)c3c2)C1
% inhibition at 0.1 uM: + (0 to 40% inhibition)

Cc1c(C#N)cccc1[C@@H](C)Nc1cnnc2ccc(C3=CCN(C)CC3)cc12
% inhibition at 0.1 uM: + (0 to 40% inhibition)

C[C@@H](Nc1cnnc2ccc(N3CCSCC3)cc12)c1cccc(C(F)F)c1F
% inhibition at 0.1 uM: + (0 to 40% inhibition)

COC1(C)CN(c2ccc3nncc(N[C@H](C)c4cccc(C(F)F)c4F)c3c2)C1
% inhibition at 0.1 uM: + (0 to 40% inhibition)

C[C@@H](Nc1cnnc2ccc(N3CC4CCC(C3)O4)cc12)c1cccc(C(F)F)c1F
% inhibition at 0.1 uM: + (0 to 40% inhibition)

C[C@@H](Nc1cnnc2ccc(N3CCC(C)(O)CC3)cc12)c1cccc(C(F)F)c1
% inhibition at 0.1 uM: + (0 to 40% inhibition)

C[C@@H](Nc1cnnc2ccc(N[C@H]3CCNC3)cc12)c1cccc(C(F)F)c1F
% inhibition at 0.1 uM: ++ (more than 40 to 70% inhibition)

C[C@@H](Nc1cnnc2ccc(N3C[C@H]4C[C@@H]3CO4)cc12)c1cccc(C(F)F)c1F
% inhibition at 0.1 uM: ++ (more than 40 to 70% inhibition)

C[C@@H]1CN(c2ccc3nncc(N[C@H](C)c4cccc(C(F)F)c4F)c3c2)CCO1
% inhibition at 0.1 uM: + (0 to 40% inhibition)

C[C@@H](Nc1cnnc2ccc(N3CCN(C(=O)C4CCOCC4)CC3)cc12)c1cccc(C(F)F)c1F
% inhibition at 0.1 uM: ++ (more than 40 to 70% inhibition)

C[C@@H](Nc1cnnc2ccc(N3CC4CC(C3)O4)cc12)c1cc(O)cc(C(F)F)c1
% inhibition at 0.1 uM: + (0 to 40% inhibition)

CO[C@@H]1CCCN(c2ccc3nncc(N[C@H](C)c4cccc(C(F)F)c4F)c3c2)C1
% inhibition at 0.1 uM: + (0 to 40% inhibition)

C[C@@H](Nc1cnnc2ccc(N3CCN(C(=O)C4COC4)CC3)cc12)c1cccc(C(F)F)c1F
% inhibition at 0.1 uM: +++ (more than 70 to 100% inhibition)

C[C@@H](Nc1cnnc2ccc(NC3CCOCC3)cc12)c1cccc(C(F)F)c1F
% inhibition at 0.1 uM: + (0 to 40% inhibition)

C[C@@H](Nc1cnnc2ccc(N3CC(C)(O)C3)cc12)c1cccc(C(F)F)c1F
% inhibition at 0.1 uM: + (0 to 40% inhibition)

C[C@@H](Nc1cnnc2ccc(N3CC[C@@H](O)C3)cc12)c1cccc(C(F)F)c1F
% inhibition at 0.1 uM: ++ (more than 40 to 70% inhibition)

C[C@@H](Nc1cnnc2ccc(N3CCC[C@H](O)C3)cc12)c1cccc(C(F)F)c1F
% inhibition at 0.1 uM: ++ (more than 40 to 70% inhibition)

Cc1c(C#N)cccc1[C@@H](C)Nc1cnnc2ccc(N3CCC(C)(O)CC3)cc12
% inhibition at 0.1 uM: + (0 to 40% inhibition)

C[C@@H](Nc1cnnc2ccc(N3CCN(C)CC3)cc12)c1cccc(C(F)F)c1F
% inhibition at 0.1 uM: ++ (more than 40 to 70% inhibition)

COC1CC2(C1)CN(c1ccc3nncc(N[C@H](C)c4cccc(C(F)F)c4F)c3c1)C2
% inhibition at 0.1 uM: + (0 to 40% inhibition)

C[C@@H](Nc1cnnc2ccc(N3CC4CC(C3)O4)cc12)c1cccc(C(F)F)c1
% inhibition at 0.1 uM: + (0 to 40% inhibition)

COC1CCN(c2ccc3nncc(N[C@H](C)c4cccc(C(F)F)c4F)c3c2)CC1
% inhibition at 0.1 uM: + (0 to 40% inhibition)

C[C@@H](Nc1cnnc2ccc(N3CC4CC(C3)O4)cc12)c1cccc(F)c1F
% inhibition at 0.1 uM: + (0 to 40% inhibition)

C[C@@H](Nc1cnnc2ccc(C3=CCNCC3)cc12)c1cccc(C(F)F)c1F
% inhibition at 0.1 uM: ++ (more than 40 to 70% inhibition)

C[C@@H](Nc1cnnc2ccc(N3CC4CC(C3)O4)cc12)c1cccc(C(F)F)c1F
% inhibition at 0.1 uM: ++ (more than 40 to 70% inhibition)

C[C@@H](Nc1cnnc2ccc(N3CCN(C(=O)[C@H]4CCOC4)CC3)cc12)c1cccc(C(F)F)c1F
% inhibition at 0.1 uM: ++ (more than 40 to 70% inhibition)

C[C@@H](Nc1cnnc2ccc(N3CCC(NC(=O)C4COC4)CC3)cc12)c1cccc(C(F)F)c1F
% inhibition at 0.1 uM: ++ (more than 40 to 70% inhibition)

C[C@@H](Nc1cnnc2ccc(N[C@@H]3CCN(C)C3)cc12)c1cccc(C(F)F)c1F
% inhibition at 0.1 uM: ++ (more than 40 to 70% inhibition)

C[C@@H](Nc1cnnc2ccc(N[C@@H]3CCNC3)cc12)c1cccc(C(F)F)c1F
% inhibition at 0.1 uM: +++ (more than 70 to 100% inhibition)

C[C@@H](Nc1cnnc2ccc(N3CC4(CN(C)C4)C3)cc12)c1cccc(C(F)F)c1F
% inhibition at 0.1 uM: +++ (more than 70 to 100% inhibition)

C[C@@H](Nc1cnnc2ccc(N[C@@H]3CCNC3)cc12)c1cccc(C#N)c1
% inhibition at 0.1 uM: + (0 to 40% inhibition)

C[C@@H](Nc1cnnc2ccc(N3CC4CC(C3)O4)cc12)c1cccc(C(F)(F)F)c1
% inhibition at 0.1 uM: + (0 to 40% inhibition)

C[C@@H](Nc1cnnc2ccc(N3CCN4CCOC[C@@H]4C3)cc12)c1cccc(C(F)F)c1F
% inhibition at 0.1 uM: ++ (more than 40 to 70% inhibition)

C[C@@H](Nc1cnnc2ccc(C3=CCN(C(=O)C4CC4)CC3)cc12)c1cccc(C(F)F)c1F
% inhibition at 0.1 uM: + (0 to 40% inhibition)

C[C@@H](Nc1cnnc2ccc(N3CC(C)(O)C3)cc12)c1cccc(C(F)F)c1
% inhibition at 0.1 uM: + (0 to 40% inhibition)

C[C@@H](Nc1cnnc2ccc(C3=CCN(C)CC3)cc12)c1cccc(C(F)F)c1F
% inhibition at 0.1 uM: +++ (more than 70 to 100% inhibition)

C[C@@H](Nc1cnnc2ccc(N3C[C@H]4C[C@@H]3CO4)cc12)c1cccc(C(F)F)c1
% inhibition at 0.1 uM: + (0 to 40% inhibition)

C[C@@H](Nc1cnnc2ccc(N3CCC(N(C)C)CC3)cc12)c1cccc(C(F)F)c1F
% inhibition at 0.1 uM: ++ (more than 40 to 70% inhibition)

COC1CN(c2ccc3nncc(N[C@H](C)c4cccc(C(F)F)c4F)c3c2)C1
% inhibition at 0.1 uM: + (0 to 40% inhibition)

C[C@@H](Nc1cnnc2ccc(N3CCOCC3)cc12)c1cccc(C(F)F)c1F
% inhibition at 0.1 uM: + (0 to 40% inhibition)

C[C@@H](Nc1cnnc2ccc(N3CCC(O)CC3)cc12)c1cccc(C(F)F)c1F
% inhibition at 0.1 uM: +++ (more than 70 to 100% inhibition)
